Test system: platelet accumulation into thrombus
Conditions: mouse, in vivo
Excerpt: A preferred animal model involves intravital microscopy of laser-induced thrombi. The method is described by Rosen et al., 2001, Am J Pathol 158, 1613-1622, which is incorporated herein by reference. Minor variations of that method were employed as described below.
Experimental mice are pre-anesthetized and surgically prepared. A tracheal tube is placed to facilitate breathing and the jugular vein is canulated to allow for maintenance of anesthetic and introduction of compound. The cremaster muscle is then exteriorized. The muscle is affixed over a glass slide, allowing illumination from below. […]
Thrombosis is initiated by damaging the vessel wall (of a 30 μm vessel) with a laser pulse from a MicroPoint LASER attached to the microscope. […] The recruitment of platelets to the thrombus is then monitored by the accumulation of (activated) Alexa 488-labeled platelets at the ablation site using fluorescence microscopy, and the process is recorded digitally. The method thus permits in vivo analysis of platelet activation as measured by platelet aggregation and thrombosis.
The degree of embolization in an untreated mouse can be quantified using software for image analysis, e.g., BioQuant True Color Windows (Biometrics, Nashville, Tenn.), as described in Rosen et al., 2001, supra. […]

9-methylene-4-(alkyl)-2,3,4,9-tetrahydro-1H-cyclopenta(b)quinoline
Tolerability in mice: tolerated
